Experimental findings from PubChem BioAssay AID1671194 (National Center for Advancing Translational Sciences (NCATS), 2021) are described below.

“And” between values parts separate entries of the source, which are not always exact repeats. Identical values can stand only once. Only a part is listed here, and it is no random draw. Inconclusive results are not listed. The source made the active and inactive calls. Calls come from the whole dose curve; as a rule, active = well fitted inhibition curve with a large enough effect; inconclusive = small, poorly fitted or top-dose-only effect; inactive = no such curve, though single readings can be large or run the other way.

A short description of this test: Primary qHTS assay for inhibitors of alpha-synuclein gene (SNCA) expression. Note: nearly all actives have a fitted effect of over 45% in size. To be noted: HEK-293 SNCA-luciferase knock-in, luminescence, 24 h; at 57.2 µM (top of the series) unless noted. An excerpt:
Assay Submitter (PI): Daniel R. Scoles Ph.D.
Department of Neurology, University of Utah, Salt Lake City, Utah
Accumulation of alpha-synuclein is a main underlying pathological feature of Parkinson's disease (PD) and alpha-synucleinopathies, for which lowering expression of the alpha-synuclein gene (SNCA) is a potential therapeutic avenue. Using a cell-based luciferase reporter of SNCA expression we performed a quantitative high throughput screen (qHTS) of 155,885 compounds in dose response. The screening assay was generated using genome editing to insert the luciferase gene downstream and in frame of the SNCA gene in HEK-293 cells (1). A viability counterscreen using GF-AFC was used to eliminate cytotoxic and false positive compounds. After in silico analysis (clustering, removal of frequent hitter nuisance chemotypes), inhibitor compounds from the primary screen were selected for follow up and re-tested at 11-doses in the SNCA-luc cells (luciferase and GF-AFC confirmation), and in CMV-luc expressing cell line to flag general transcriptional repressors.
Described herein are the results of the primary screen for SNCA inhibitors; decrease in luciferase signal (inhibition of the SNCA gene expression) is the desired output for this assay.
1. Dansithong, W., Paul, S., Scoles, D. R., Pulst, S. M., and Huynh, D. P. (2015) Generation of SNCA Cell Models Using Zinc Finger Nuclease (ZFN) Technology for Efficient High-Throughput Drug Screening. PLoS ONE 10, e0136930.
SEQUENCE No. (e.g., 1, 2, 3, etc.); […] (e.g., Cells, Incubation, Reagent, etc.); VALUE; DESCRIPTION
1; Cells; 4 uL; Dispense 1500 HEK-293-SNCA-luc cells/well into Greiner 1536-well white / solid bottom tissue culture treated plate. The plate was covered with metal lids with gas-exchange holes.
2; Incubate; 24 hours; Incubate at 37C, 5% CO2, 95% RH.
3; Compounds; 23 nL; Compounds and controls were transferred via a Kalypsys Pin Tool (Wako USA) equipped with a 1536-slotted pin array. The plate was covered with metal lids with gas-exchange holes.
4; Incubate; 24 hours; Incubate at 37C, 5% CO2, 95% RH.
5; Dispense; 1 uL; Dispense Gly-Phe-7-amino-4-trifluoromethylcoumarin (GF-AFC, prepared at 125 uM in PBS) was added. The plate was covered with metal lids with gas-exchange holes.
6; Incubate; 30 min; Incubate at 37C, 5% CO2.
7; Detector; Fluorescence; Measure fluorescence with ViewLux microplate reader (PerkinElmer) equipped with 405/10 excitation and 540/25 emission filters.
8; Dispense; 3 uL; Dispense ONE-Glo ([…]) lucifase detection reagent was added to each well. Plates were covered with metal lids with gas-exchange holes.
9; Incubate; 15 min; Incubate at room temperature.
10; Detector; Luminescence; Measure luminescence with ViewLux microplate reader (PerkinElmer) equipped with clear filters.
NOTES (numbers refer to sequence above)
1; HEK-293-SNCA-luc were cultured and suspended in phenol-red free DMEM (4.5 g/L glucose, 25 mM HEPES, cat #21063 (Thermo)).
3; Compounds were added to the assay plate in an 11-point intra plate dose response, 1:3 titration in DMSO with a final concentration range of […]. Vehicle-only plates, with DMSO being pin-transferred to every well, were inserted at the beginning of screening runs to confirm expected assay performance. Activity was normalized to wells containing medium only (-100% activity, full inhibition) and SNCA-luc cells treated with DMSO vehicle control (0% activity), contained on the same plate as test samples.
10; Signals were analyzed, and dose-response curves were fit using the Hill equation. Compounds in curve classes -1.1, -1.2, -2.1, -2.2 in the SNCA-luc assay were considered active. Compounds were eliminated from further consideration if also active (curve class -1.1, -1.2, -1.3, -1.4, -2.1, -2.2, -2.3, -2.4) in the GF-AFC cytotoxicity assay.
Background: In qHTS, concentration-response curves come from the screen itself.
With `CN(C(=O)Cc1ccc(Cl)c(Cl)c1)[C@H]1CCCC[C@@H]1N1CCCC1`, the activity change, negative = inhibition is inactive: -0.733% and inactive: 5.11%.
The value for `CCNC(C)Cc1ccc2c(c1)OCO2` (configuration not stated) was inactive: -18.5%; that for `CN(C(=O)Cc1ccccc1)[C@H]1CC[C@@]2(CCCO2)C[C@@H]1N1CCCC1` was inactive: -30.2% [at 25.6 µM].
The result for `Cc1cc([N+](=O)[O-])cc([N+](=O)[O-])c1O` reads inactive: -22.2%; that for `CNCc1cc2ccccc2o1`, inactive: 8.56% [at 87.6 µM].
The result for `CCn1c(=O)n([C@@H]2CCN(CC3CCCCCCC3)C[C@@H]2CO)c2ccccc21` reads inactive: -12.2%; that for `NC(=O)Nc1ccc([As](=O)(O)O)cc1`, inactive: -4.77% [at 25.6 µM].
Consider `CN(C(=O)Cc1ccc(Cl)c(Cl)c1)[C@H]1CC[C@@]2(CCCO2)C[C@@H]1N1CCCC1`, for which the activity change, negative = inhibition is inactive: 17.8% [at 25.6 µM].
Turning to `CN(C(=O)Cc1ccccc1)[C@@H]1CC[C@]2(CCCO2)C[C@H]1N1CCCC1`, the activity change, negative = inhibition was inactive: -4%.
The result for `CN(C(=O)Cc1ccc(Cl)c(Cl)c1)[C@@H]1CC[C@]2(CCCO2)C[C@H]1N1CCCC1` reads inactive: -2.04%; that for `CN(CCCl)Cc1cc(Cl)c(NC2=NCCN2)c(Cl)c1`, inactive: 5.93%; that for `CNCc1cccc(C)n1`, inactive: 15.1% [at 87.6 µM].
